Measured values from publication PMC7961094 (The Journal of Biological Chemistry, 2021).

Chains of the proteins cited; added tags and fusions are not shown. Residues count along the entry.
UniProt Q9GZT9, 181-426: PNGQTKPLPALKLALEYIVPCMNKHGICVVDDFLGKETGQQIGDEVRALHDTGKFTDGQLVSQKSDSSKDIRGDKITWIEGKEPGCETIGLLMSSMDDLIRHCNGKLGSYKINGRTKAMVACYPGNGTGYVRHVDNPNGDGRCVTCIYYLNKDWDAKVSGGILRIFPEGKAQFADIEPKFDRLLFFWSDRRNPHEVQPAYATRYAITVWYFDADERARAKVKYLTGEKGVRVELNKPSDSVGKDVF

Target: PHD2_181-426 (Homo sapiens, UniProt Q9GZT9)
Test: 2,4-DNPH α-KG assay with PHD2
Experimental: During the course of the reaction, 50 μl was withdrawn at various time points from the reaction tube and quenched in 50 μl of 10% TCA at predetermined time points and vortexed.
Subsequent measurements were performing at time points conforming to those requirements. Initial velocities at each substrate concentration were fit using linear regression to generate Michaelis–Menten titration curves.
All data were plotted using GraphPad Prism 8.0 and presented as a mean ± standard deviation of three independent biological replicates, unless otherwise stated. For kinetic data, Km was determined by fitting the data to a least squares ordinary fit Michealis–Menten function, while IC50 values were obtained from fitting the data to a three-parameter log(inhibitor) versus response function. Where applicable, two-tailed t tests were performed to determine statistical significance using a p-value of 0.05.

Compound `O=C(O)CNC(=O)c1ncc(-c2cccc(Cl)c2)cc1O` [Vadadustat] has an IC50 of 808 nM.
